Measured values as given in ChEMBL document CHEMBL1201862, “PubChem BioAssay data set” (2004).

By UniProt entry, the sequences of proteins in these tests, tags left out.
UniProt P35372, whole entry: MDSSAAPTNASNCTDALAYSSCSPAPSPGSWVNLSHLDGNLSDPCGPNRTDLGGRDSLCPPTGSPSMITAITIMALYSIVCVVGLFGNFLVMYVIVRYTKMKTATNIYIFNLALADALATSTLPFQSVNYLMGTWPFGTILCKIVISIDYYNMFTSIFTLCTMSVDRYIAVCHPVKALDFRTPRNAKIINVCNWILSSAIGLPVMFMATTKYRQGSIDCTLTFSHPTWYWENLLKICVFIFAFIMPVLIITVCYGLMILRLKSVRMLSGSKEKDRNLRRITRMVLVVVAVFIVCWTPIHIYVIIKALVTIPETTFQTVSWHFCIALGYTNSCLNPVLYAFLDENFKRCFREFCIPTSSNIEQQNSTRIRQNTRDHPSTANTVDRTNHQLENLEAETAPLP

Molecular target: Mu-type opioid receptor (Homo sapiens, UniProt P35372)
Assay type: functional, cell-based
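Note: U2OS cells with beta-arrestin recruitment to OPRM1 by beta-gal complementation.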

CN1C[C@H](C(=O)N[C@]2(C)O[C@@]3(O)[C@@H]4CCCN4C(=O)[C@H](Cc4ccccc4)N3C2=O)CC2c3cccc4[nH]cc(c34)C[C@H]21 (stereo partly specified)
EC50: inactive: 92.5 µM

The source made the active and inactive calls. The rule behind the calls is not given here.
